Test results: patent publication US20110038921A1, “METHODS AND COMPOSITIONS FOR TEMPORAL RELEASE OF AGENTS FROM A BIODEGRADABLE SCAFFOLD” (Clemson University Research Foundation, priority 2009, published 2011)

Legend:
[1] = In vitro release from nanoLbL-coated PLGA-collagen scaffold into PBS (UV-vis, ELISA); assay type: physicochemical; conditions: nanoLbL coating on PLGA-collagen scaffold; monitored up to 40 days
Method: Nano-Layer-by-Layer (NanoLbL) technology is used to further functionalize biodegradable scaffolds. Using this technique, surface modification of a charged template occurs via electrostatic interactions. It offers a facile method to create multifunctional nano-coatings with tunable release kinetics. A compartmentalization technique that allows for multimolecule release was used. In one example, PLGA 50:50 copolymer and collagen were dissolved in hexafluoro-2-propanol in a ratio of 7 to 1. The polymer solution was fed by syringe pump at a rate of 0.015 mL/min through a 23 gauge blunt tipped needle. A voltage of 10 kV and a working distance of 10 cm were used. The PLGA/collagen fibers were collected on square glass sheets on top of grounded aluminum foil. The fibrous scaffolds are then crosslinked in 5% genipin solution for one hour. The scaffolds were rinsed in ethanol and dried in a stream of nitrogen prior to deposition of nano-layers. Collagen, having an isoelectric point of 5.5, is negatively charged at physiologic pH, providing a charged surface upon which the nanoLbL process can proceed. Polyelectrolyte solutions of polycation poly (allylamine hydrochloride) (PAH), and the polyanion poly(acrylic acid) (PAA) were prepared in 0.15M NaCl solution at 1 mg/mL. […] For PD98059 loaded samples, release was monitored for 21 days. […]

ectopic bone formation = test: Ectopic bone formation, BMP-2 loaded scaffold implanted subcutaneously in rats, μCT; assay type: in vivo, rat; conditions: nanoLbL scaffold 5 mm x 2 mm; subcutaneous, back of adult male S.D. rats; 4 weeks
Description: FIG. 10. […] Micro-CT of BMP-2 loaded scaffold after four weeks implantation subcutaneously into the back of rats. One slice in cross section (A) and one slice in horizontal section (B).
Using the same nanoLbL technology, BMP-2 was loaded onto scaffolds of 5 mm diameter and 2 mm thickness. The scaffolds were implanted subcutaneously into the backs of adult male S.D. rats. After 4 weeks, the rats were sacrificed and the implants were harvested for μCT examination for bone formation inside the scaffolds.

Substance: BMP-2: bone morphogenetic protein 2, growth factor
- Start of release from the bottom compartment [1]: started after release of the inhibitors
- Ectopic bone formation (ectopic bone formation): induces ectopic bone formation
